pIC50: −log10 of the molar value.
Biological target: recombinant human SYK360-635 (Homo sapiens (Human), UniProt P43405)
Assay: SYK kinase assay (33P ATP filtration, IC50 of SYK inhibition)
Format: biochemical
Conditions: truncated SYK aa 360-635 0.5 nM, ATP 20 μM, peptide 5 μM, 30° C. 15 min; read-out: ENZYME_FILTRATION_IC50
Method: Determination of IC50 of Spleen Tyrosine Kinase (SYK) Inhibition:
SYK kinase assay is a standard kinase assay adapted to a 96 well plate format. This assay is performed in 96-well format for IC50 determination with […] which represented 10 half log dilutions and a 40 μL reaction volume. The assay measures the incorporation of radiolabeled ^33P γATP into an N-terminally biotinylated peptide substrate, derived from naturally occurring phosphoacceptor consensus sequence (Biotin-11aa DY*E). Phosphorylated products were detected upon termination of reactions with EDTA and the addition of Streptavidin coated beads.
Assay plates: 96-well MultiScreen 0.65 um filter plates (Millipore Cat. No.: MADVNOB10)
final concentration: 50 mM HEPES pH7.5
BSA: Bovine Serum Albumin Fraction V, fatty acid free (Roche Diagnostics GmbH, Cat. No. 9100221) diluted to a final concentration of 0.1%
Assay Dilution Buffer (ADB): 50 mM HEPES, 0.1 mM EGTA, 0.1 mM Na Vanadate, 0.1 mM β-glycerophosphate, 10 mM MgCl2, 1 mM DTT, 0.1% BSA, pH 7.5
Bead wash buffer: 10 g/L PBS (Phosphate buffered saline) with 2M NaCl+1% phosphoric acid.
DMSO and the mixture was incubated for 10 min at RT.
The kinase reaction was initiated by the addition of 10 μL 4× substrate cocktail containing the DYE peptide substrate [0 or 5 μM], ATP [20 μM] and ^33PγATP [2 μCi/r×n]. After incubation at 30° C. for 15 min, the reaction was terminated by the transfer of 25 μL of the reaction sample to a 96 well 0.65 μm Millipore MADVNOB membrane/plate containing 200 μL 5 mM EDTA and 20% Streptavidine coated beads in PBS.
After the last wash membrane/plates were transferred to an adaptor plate, heat dried for 15 min at 60° C., and 50 μL scintillation cocktail was added to each well and 4 h later the amount of radioactivity was counted in a top counter.

| pIC50 | SMILES |
| --- | --- |
| 7.31 | CC1CCCN1c1cccc(Nc2cc(-c3cccc(C(N)=O)c3)nn3ccnc23)n1 (centres unmarked) [Example I-12, 3-{8-[6-(2-Methyl-pyrrolidin-1-yl)-pyridin-2-ylamino]-imidazo[1,2-b]pyridazin-6-yl}-benzamide] |
| 7.48 | CC1CCCN1c1cccc(Nc2cc(-c3ccc(C(N)=O)cc3)nn3ccnc23)n1 (centres unmarked) [Example I-17, 4-{8-[6-(2-Methyl-pyrrolidin-1-yl)-pyridin-2-ylamino]-imidazo[1,2-b]pyridazin-6-yl}-benzamide] |
| 7.79 | C[C@H]1CCCN1c1cccc(Nc2cc(-c3cccc(C(N)=O)c3)nn3ccnc23)n1 [Example I-51, 3-{8-[6-((S)-2-Methyl-pyrrolidin-1-yl)-pyridin-2-ylamino]-imidazo[1,2-b]pyridazin-6-yl}-benzamide] |
| 6.22 | CC1CCCN1c1cccc(Nc2cc(-c3cccc(CN4CCCCC4)c3)nn3ccnc23)n1 (centres unmarked) [Example I-69, [6-(2-Methyl-pyrrolidin-1-yl)-pyridin-2-yl]-[6-(3-piperidin-1-ylmethyl-phenyl)-imidazo[1,2-b]pyridazin-8-yl]-amine] |
| 7.05 | CC1CCCN1c1cccc(Nc2cc(-c3ccc(OCCN4CCCCC4)cc3)nn3ccnc23)n1 (centres unmarked) [Example I-89, [6-(2-Methyl-pyrrolidin-1-yl)-pyridin-2-yl]-{6-[4-(2-piperidin-1-yl-ethoxy)-phenyl]-imidazo[1,2-b]pyridazin-8-yl}-amine] |

Reference: patent publication US9169259B2, “Imidazopyridazine compounds” (Hoffmann-La Roche Inc., priority 2011, dated 2015)
